# In patent US8501715B2, “Oxidized lipids and uses thereof in the treatment of inflammatory diseases and disorders” (Vascular Biogenics Ltd., priority 2003, dated 2013):
# Tested on: LDL-RD mice
# Test: Atheromatous plaque area in the aortic sinus of LDL-RD mice
# Assay type: in vivo, mouse
# Details: albumin control, oral 100 μg/dose 5 times every other day, Western diet; 6.5 weeks after first administration
# Description: LDL-RD mice: LDL-RD Mice [LDLr<m1Her>LDL−/−(C57B/6 50% JSL 25% I129 25%)], 8-12 weeks old, were supplied by the Hadassah Hospital Animal Facility (Hadassah Hospital, Israel).
# Assessment of Atherosclerosis: Quantification of atherosclerotic fatty streak lesions was done by calculating the lesion size in the aortic sinus as previously described (Paigen et al. Quantitative assessment of atherosclerotic lesions in mice. Atherosclerosis 1987; 68: […]) and by calculating the lesion size in the aorta. Briefly, after perfusion with saline Tris EDTA, the heart and the aorta were removed from the animals and the peripheral fat cleaned carefully. The upper section of the heart was embedded in OCT medium (10.24% w/w polyvinyl alcohol; 4.26% w/w polyethylene glycol; 85.50 w/w nonreactive ingredients) and frozen. […] Sections were evaluated for fatty streak lesions after staining with oil-red O. Lesion areas per section were scored on a grid (Rubin et al. Inhibition of early atherogenesis in transgenic mice by human apoplipoprotein A-I. Nature 1991; 353: 265-267) by an observer counting unidentified, numbered specimens. […]
# Plasma Measurements and Quantification of Atherosclerotic Lesions: Plasma total cholesterol and total triglyceride levels were measured by COBAS MIRA. […] Atherosclerotic lesion area was evaluated by computer analysis (Image Pro Plus) and supported by microscope evaluation as well. […]
substance,measurement,value
"Human Serum albumin: human serum albumin, control protein, 100 μg/dose",Aortic Sinus Lesion,"77,604 ± 5,039 μm^2"
